# Test results: PubChem BioAssay AID887 (National Center for Advancing Translational Sciences (NCATS), 2007)
# By UniProt entry, the sequences of proteins in these tests, tags left out.
# UniProt P16050, whole entry: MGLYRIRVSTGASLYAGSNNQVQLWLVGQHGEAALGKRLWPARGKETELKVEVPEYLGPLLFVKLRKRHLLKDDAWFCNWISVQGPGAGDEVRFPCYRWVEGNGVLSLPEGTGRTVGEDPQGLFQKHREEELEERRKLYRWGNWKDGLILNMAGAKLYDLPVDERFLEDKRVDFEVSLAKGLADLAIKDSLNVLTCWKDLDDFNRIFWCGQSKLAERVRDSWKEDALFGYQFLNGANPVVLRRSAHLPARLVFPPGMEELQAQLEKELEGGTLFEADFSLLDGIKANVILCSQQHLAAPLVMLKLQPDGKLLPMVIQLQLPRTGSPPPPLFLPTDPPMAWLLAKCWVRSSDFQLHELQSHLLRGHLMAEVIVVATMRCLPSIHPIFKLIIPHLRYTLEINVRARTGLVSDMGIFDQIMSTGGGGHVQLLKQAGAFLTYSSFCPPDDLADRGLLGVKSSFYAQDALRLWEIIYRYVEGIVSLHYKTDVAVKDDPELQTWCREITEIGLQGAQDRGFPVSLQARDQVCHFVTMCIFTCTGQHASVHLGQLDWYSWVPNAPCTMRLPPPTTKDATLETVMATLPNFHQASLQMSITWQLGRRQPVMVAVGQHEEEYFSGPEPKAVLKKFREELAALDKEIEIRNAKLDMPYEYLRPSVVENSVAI
# The entries are a selection whose mix differs from that of the whole data set. Results filed as inconclusive are left out. Active and inactive are the calls of the source. The call rests on the fitted dose curve; in most records, active means well fitted inhibition curve with a large enough effect; inconclusive means small, poorly fitted or top-dose-only effect; inactive means no such curve, though single readings can be large or run the other way.
# Target: Polyunsaturated fatty acid lipoxygenase ALOX15 (Homo sapiens) (UniProt P16050)
# Experiment: qHTS Assay for Inhibitors of 15-hLO (15-human lipoxygenase); further: nearly all actives have a fitted effect of over 55% in size
# Settings: purified 15hLO-1, xylenol orange hydroperoxide absorbance; at 57.1 µM (top of the series)
# On the % scale 0 is the no-effect control and ±100 the full control effect.
row,SMILES,"activity change, negative = inhibition"
1,CN(CCCl)CCCl,inactive: -29.2%
2,O=[N+]([O-])C(Cl)(Cl)Cl,inactive: 1.59%
